Laboratory results published in patent US20260384421A1, “NOVEL COMPOUNDS THAT CAN BE USED AS THERAPEUTIC AGENTS” (published 2026).
Like-named read-outs stand apart in the source and are kept apart here.

How the values were obtained:
HEP-G2 cells = assay: alamarBlue proliferation assay with HEP-G2 cells; settings: read-out: Activity on HEP-G2: IC50, RPMI 1640 medium, 10% FBS
A-549 cells = assay: alamarBlue proliferation assay with A-549 cells; settings: read-out: Activity on A-549: IC50, DMEM medium, 10% FBS
MDA-MB-231 cells = assay: alamarBlue proliferation assay with MDA-MB-231 cells (glucose-free Leibovitz's L-15 medium)
23132/87 cells = assay: alamarBlue proliferation assay with 23132/87 cells; settings: read-out: Activity on 23132/87: IC50, RPMI 1640 medium, 10% FBS
Source text: (§1) These hyperproliferative processes can be benign or malignant and include hyperplasia, neoplasia, cancer and pre-cancerous lesions, and metastases. The antiproliferative activities of compounds falling under general formula (I) were investigated on human primary epidermal keratinocytes (HPEK) and human, murine and canine cell lines derived from hyperproliferative tissue or different cancer types, including MDA-MB-231, ZR-75-30, HCC-1395, HCC-1937, and T-47D all originating from cancer of the breast, JURKAT, RPMI-8402, LOUCY, TANQUE, REC-1, HL-60, NB-4 all originating from different types of blood cancer including lymphoma and leukemia of T-cells, B-cells and myeloid cells, TT originating from cancer of the neuroendocrine system, HeLa originating from cancer of the cervix, 23132/87, SW-948, and HCT-116 all originating from cancer of the gastrointestinal tract including stomach and colon, BHY originating from cancer of the mucosal epithelium, A-431 originating from cancer of the skin, HEP-G2 originating from cancer of the liver, NCI-H460 and A-549 both originating from cancer of the lung, PANC-1 originating from cancer of the pancreas, U-87 MG originating from cancer of the brain, A-375 and RVH-421 both originating from cancer of melanocytes, SW-1353 originating from cancer of bone-derived chondrocytes, C2C12 a mouse cell line originating from hyperproliferative muscle progenitor cells, LL/2 a mouse cell line originating from cancer of the lung, CF21.T a dog cell line originating from cancer of the connective tissue. To this end, according cells were seeded into 96-well plates (CORNING #3598) suitable for fluorescence assays at following initial cell numbers: 1000 cells per well for HPEK; 3000 cells per well for MDA-MB-231, 8000 cells per well for ZR-75-30, 1500 cells per well for HCC-1395, 1500 cells per well for HCC-1937, 3000 cells per well for T-47D, 1500 cells per well for JURKAT, 5000 cells per well for RPMI-8402, 9000 cells per well for LOUCY, 1500 cells per well for TANQUE, 9000 cells per well for REC-1, 1000 cells per well for HL-60, 1000 cells per well for NB-4, 9000 cells per well for TT, 2000 cells per well for HeLa, 2000 cells per well for 23132/87, 9000 cells per well for SW-948, 700 cells per well for HCT-116, 1500 cells per well for BHY, 700 cells per well for A-431, 1500 cells per well for HEP-G2, 500 cells per well for NCI-H460, 1000 cells per well for A-549, 1500 cells per well for PANC-1, 2500 cells per well for U-87 MG, 700 cells per well for A-375, 1500 cells per well for RVH-421, 2000 cells per well for SW-1353, 500 cells per well for C2C12, 500 cells per well for LL/2, and 3000 cells per well for CF21.T. In a volume of 90 μL per well of culture medium the cells were treated with compounds at indicated final concentrations by adding 10 μL per well of 10× compound working solutions from 1:100 pre-diluted 1000× compound DMSO stock-solutions in H2O (Water For Injection, WFI, Fisher Scientific, Gibco™ #A12873) or with the empty carrier DMSO (AppliChem, #A3672) at 0.1% v/v as control yielding a final volume of 100 μL per well. At day 5 after starting the treatments the cells were subjected to the alamarBlue® Proliferation Assay (Bio-Rad Serotec GmbH, BUF012B) according to the protocol of the manufacturer. The readout was taken with a multi-well plate-reader (Tecan Spark®) in the fluorescence mode with applying a filter for excitation at 560 nm (band width 10 nm) and for emission at 590 nm (band width 10 nm). Treatment for maximum proliferation inhibition with the commercial cytotoxic compound (S)-(+)-camptothecin (Fluorochem #M01564) at a concentration of 10 μM was included on each plate for assay quality control. Some of the test compounds of the present invention may have been obtained and applied as their salt forms.
(§2) The assays were performed in duplicate or more replicates of independent single experiments each containing a three- to six-fold replicate for every condition. […]

[1] = system: AMPK (Thr172 phosphorylation) in HEP-G2 cells; assay: AMPK activation assay on HEP-G2 cells (Thr172 phosphorylation, western blot); settings: 10 nM, 20 hours, Thr172 phosphorylation relative to DMSO control
Description: AMPK activation can be assessed by the levels of AMPK phosphorylation at Thr172. The APMK activating activities of compounds falling under general formula (I) were investigated by western blotting on different cancer cell lines. Access and cultivation of the respective cell lines are as described above. To this end, A-549, HEP-G2, and HCT-116 cells were seeded into 6-well culture plates (Cyto-One®, #CC7682-7506) in a total volume of 2 mL at a density to achieve 80% confluency by 48 hours and incubated over night at 37 °C and 5% CO2. Cells were treated at a confluency of around 50% with compounds at indicated final concentration by adding 2 μL per well of a 1000× compound DMSO stock-solution. Cells were incubated for 20 hours at 37 °C and 5% CO2. Then, cells were lysed in RIPA buffer (Pierce™ RIPA Buffer, FisherScientific, #89900) supplemented with 1× cOmplete™ Mini Protease Inhibitor Cocktail (Roche, #11836153001) and 1 mM Sodium Orthovanadate (Na3VO3, FisherScientific, #J60191) and lysates were subjected to standard western blotting procedure. Protein concentration of the samples was determined by BCA assay and samples were normalized to achieve equal protein concentration. 4× Laemmli Sample Buffer (Bio-Rad, #1610747) was supplemented with 200 μM DTT (Sigma Aldrich-Merck, #D9779) and added to the samples to achieve a final concentration of 1× Laemmli/50 μM DTT by diluting lysate samples with supplemented Laemmli buffer 1:4. Samples were then incubated at 95 °C for 5 min in a Thermomixer (Eppendorf). SDS-PAGE was performed in 1× Tris/Glycine/SDS buffer (TGS, Bio-Rad, #1610772) using 4-15% gradient polyacrylamide gels (4-15% Mini-PROTEAN® TGX Stain-Free™ Gel, Bio-Rad, #456-8084). Proteins were transferred onto 0.2 μm PVDF membranes using the semi-dry Trans-Blot® Turbo™ transfer system (Trans-Blot® Turbo™, Bio-Rad, #170-4150) with prepacked Trans-Blot® Turbo™ transfer packs (Bio-Rad, #170-4156). Immunodetection of AMPK, pAMPK (Thr172), and β-Actin was performed using the following primary antibodies: AMPKα (F6) Mouse mAb (Cell Signaling Technologies, #2793) for AMPK, Phospho-AMPKα (Thr172) (40H9) Rabbit mAb (Cell Signaling Technologies, #2535) for pAMPK (Thr172), and Purified anti-β-actin Antibody (Rat monoclonal, W16197A) (Cell Signaling Technologies, #664802) for β-Actin. HRP-linked secondary antibodies in 5% nonfat dried milk (AppliChem, #A0830) in 1×TBS containing 0.1% Tween-20 were used for the corresponding species mouse, rabbit and rat (Cell Signaling Technologies, #7076, #7074, #7077), respectively. Signals were developed with chemiluminescence substrate (SuperSignal™ West Pico PLUS, Fisher Scientific, #34577) and detected with the ChemiDoc™ MP imaging system (ChemiDoc™ MP, Bio-Rad, #12003154). Chemiluminescence signals of phosphorylation, total protein and loading control were quantified by densitometry using the image analysis software Image Lab™ (version 6.0.1, Bio-Rad). The corresponding lysates from DMSO treated cells were included on each membrane as the base line control for blot-internal signal normalization. The standard deviation of signal intensities of the loading control-Actin within each blot was 16% or lower confirming equal loading of protein amounts.
For each condition, the ratio of phosphorylation to corresponding total protein was calculated from the signal intensities. The ratios were then normalized to the corresponding ratio of the DMSO control to yield the fold-change values of phosphorylation.
In the following embodiments, a compound is considered as an AMPK activator if the fold-change value of phosphorylation is 1.5 or higher, preferably 2.0 or higher, and more preferably 2.5 or higher as determined with the method described above.

LL/2 cells = assay: alamarBlue proliferation assay with LL/2 cells; settings: read-out: Activity on LL/2: IC50; LL/2 murine Lewis lung carcinoma cells, DMEM medium, 10% FBS
T-47D cells = assay: alamarBlue proliferation assay with T-47D cells; settings: read-out: Activity on T-47D (IC50), day 5
Source text: as §1, §2

HeLa cells = assay: alamarBlue proliferation assay with HeLa cells; settings: read-out: Activity on HeLa (IC50), day 5
Source text: as §1, with “Treatment for maximum proliferation inhibition with the commercial cytotoxic compound (S)-(+)-camptothecin (Fluorochem #M01564) at a concentration of 10 μM was included on each plate for assay quality control. Some of the test compounds of the present invention may have been obtained and applied as their salt forms.” left out

NB-4 cells = assay: alamarBlue proliferation assay with NB-4 cells; settings: read-out: Activity on NB-4: IC50, RPMI 1640 medium, 10% FBS
TANQUE cells = assay: alamarBlue proliferation assay with TANQUE cells; settings: read-out: Activity on TANOUE: IC50, RPMI 1640 medium, 10% FBS
BHY cells = assay: alamarBlue proliferation assay with BHY cells; settings: read-out: Activity on BHY: IC50, DMEM medium, 10% FBS
CF21.T cells = assay: alamarBlue proliferation assay with CF21.T cells; settings: read-out: Activity on CF21.T: IC50; CF21.T canine cells, DMEM medium, 10% FBS
HCT-116 cells = assay: alamarBlue proliferation assay with HCT-116 cells; settings: read-out: Activity on HCT-116: IC50, McCoy's 5A medium, 10% FBS
NCI-H460 cells = assay: alamarBlue proliferation assay with NCI-H460 cells; settings: read-out: Activity on NCI-H460: IC50, RPMI 1640 medium, 10% FBS
HPEKp cells = assay: proliferation assay with human epidermal keratinocyte progenitors (HPEKp), selectivity versus MDA-MB-231; settings: read-out: Activity (HPEK): antiproliferative activity on HPEK cells, IC50 category; HPEK cells cultivated in CnT-Prime medium
A-431 cells = assay: alamarBlue proliferation assay with A-431 cells; settings: read-out: Activity on A-431: IC50, DMEM medium, 10% FBS
HCC-1395 cells = assay: alamarBlue proliferation assay with HCC-1395 cells; settings: read-out: Activity on HCC-1395 (IC50), day 5
Source text: as §1, §2

[2] = read-out: Activity on MDA-MB-231 (IC50), glucose-free Leibovitz's L-15, 10% FBS, day 5, alamarBlue

Structure (SMILES) | IC50 (HEP-G2 cells) | IC50 (A-549 cells) | IC50 (MDA-MB-231 cells; [2]) | IC50 (23132/87 cells) | Fold-change AMPK activation [1] | IC50 (LL/2 cells) | IC50 (T-47D cells) | IC50 (HeLa cells) | IC50 (NB-4 cells) | IC50 (TANQUE cells) | IC50 (BHY cells) | IC50 (CF21.T cells) | IC50 (HCT-116 cells) | IC50 (NCI-H460 cells) | IC50 (MDA-MB-231 cells; read-out: Activity (MDA): antiproliferative activity on MDA-MB-231 cells, IC50 category, MDA-MB-231 cells cultivated in glucose-free Leibovitz's L-15 medium) | IC50 (HPEKp cells) | IC50 (A-431 cells) | IC50 (HCC-1395 cells)
O=Cc1cc(C2CCC3(CC2)OCCO3)ccc1Oc1ccc(C(=O)N2CCN(Cc3ccc(Cl)cc3)C3CCCCC32)cc1 (stereo not drawn) | ≤ 5000 nM | ≤ 5000 nM | ≤ 5000 nM | ≤ 5000 nM |  |  |  |  |  |  |  |  |  |  |  |  |  | 
COC1CCC(c2ccc(Oc3ccc(C(=O)N4CCN(Cc5ccc(S(F)(F)(F)(F)F)cc5)CC4)cc3)c(O)c2)CC1 (stereo not drawn) | ≤ 200 nM | ≤ 200 nM |  | ≤ 5000 nM | ≥2.5 |  |  |  |  |  |  |  |  |  |  |  |  | 
COC1CCC(c2ccc(Oc3ccc(C(=O)N4CCN(Cc5ccc(S(F)(F)(F)(F)F)cc5)CC4)cc3)c(C=O)c2)CC1 (stereo not drawn) | ≤ 200 nM | ≤ 200 nM | ≤ 200 nM | ≤ 5000 nM |  | ≤ 200 nM | ≤ 5000 nM | ≤ 5000 nM | ≤ 200 nM | ≤ 200 nM | ≤ 200 nM | ≤ 200 nM | ≤ 200 nM |  |  |  |  | 
O=Cc1cc(C2CCC3(CC2)OCCO3)ccc1Oc1ccc(C(=O)N2CCN(Cc3ccc(Cl)cc3)CC2)cc1 | ≤ 1000 nM |  | ≤ 200 nM |  |  |  |  |  |  |  |  |  |  | ≤ 200 nM | < 1000 nM | < 5000 nM | ≤ 1000 nM | ≤ 20000 nM
COC1CCC(c2ccc(Oc3ccc(C(=O)N4CCN(Cc5ccc(Cl)cn5)CC4)cc3)c(C=O)c2)CC1 (stereo not drawn) | ≤ 200 nM | ≤ 200 nM | ≤ 200 nM | ≤ 5000 nM |  | ≤ 1000 nM | ≤ 1000 nM | ≤ 5000 nM | ≤ 200 nM | ≤ 200 nM | ≤ 200 nM | ≤ 1000 nM | ≤ 200 nM |  |  |  |  | 
COc1ccc(CN2CC3(C2)CN(C(=O)c2ccc(Oc4ccc(C5CCCCC5)cc4CO)cn2)C3)cc1 | ≤ 5000 nM | ≤ 5000 nM | ≤ 5000 nM | ≤ 5000 nM |  |  |  |  |  |  |  |  |  |  |  |  |  | 
CCOC(=O)CN1CCN(C(=O)c2ccc(Oc3ccc(C4CCC5(CC4)OCCO5)cc3C=O)cc2)CC1=O | ≤ 1000 nM |  | ≤ 5000 nM |  |  |  |  |  |  |  |  |  |  |  |  |  | ≤ 5000 nM | ≤ 5000 nM
COC1CCC(c2ccc(Oc3ccc(C(=O)N4CCN(Cc5ccc(OC(F)(F)F)cc5)CC4)cc3)c(C=O)c2)CC1 (stereo not drawn) | ≤ 200 nM | ≤ 200 nM | ≤ 200 nM | ≤ 5000 nM |  | ≤ 200 nM | ≤ 5000 nM | ≤ 5000 nM | ≤ 200 nM | ≤ 200 nM | ≤ 200 nM | ≤ 200 nM | ≤ 200 nM |  |  |  |  | 
O=Cc1cc(C2CCC3(CC2)OCCO3)ccc1Oc1ccc(C(=O)N2CCN(C(=O)c3ccccc3)CC2)cc1 | ≤ 5000 nM | ≤ 5000 nM | ≤ 5000 nM | ≤ 5000 nM |  |  |  |  |  |  |  |  |  |  |  |  |  | 
